# Data taken from patent publication US20100080855A1, “HEDGEHOG SIGNALING AND CANCER STEM CELLS IN HEMATOPOIETIC CELL MALIGNANCIES” (THE BOARD OF TRUSTEES OF THE LELAND STANFORD JUNIOR …, priority 2008, published 2010).
# What was measured:
# [1] = test system: bone marrow KLSF cells infected with wild type BCR-ABL
# From the text: (§1) Colonies were counted 8-10 days after plating. For the serial replating assay, cells were harvested and counted and 10,000 cells were replated into 12-well plates.
# (§2) Additional details concerning the experiment results shown in FIG. 5 are as described here. […] Colonies were counted after 7-10 days. […] Colony numbers were counted on days 8-10. The graph shown is representative of two independent experiments. Error bars show s.e.m.
# [2] = test system: bone marrow KLSF cells infected with BCR-ABL T315I; conditions: mutant BCR-ABL T315I; cyclopamine 3 μM; colonies counted days 8-10
# From the text: as §1, §2
# [3] = test system: BCR-ABL1 driven leukemia; conditions: after seven weeks; 25 mg/kg cyclopamine by oral gavage; 100% of control animals succumbed over four weeks
smiles,measurement,setting,value
CC1=C2C[C@H]3[C@@H](CC=C4C[C@@H](O)CC[C@@]43C)[C@@H]2CC[C@]12O[C@@H]1C[C@H](C)CN[C@H]1[C@H]2C [cyclopamine],reduction of growth (colony formation),"[1]; control (wild type) BCR-ABL1, cyclopamine 3 μM, colonies counted days 8-10",6 fold
same,"growth / colony number, result in words","[1]; wild type BCR-ABL, 600 GFP positive cells, imatinib 2 μM or cyclopamine 3 μM, days 8-10",decreases colony formation
same,reduction of growth (colony formation),[2],6 fold
same,mice still alive,[3],40%
